Results: US5641772A, “Condensed diazepinones, processes for preparing them and agents containing these compounds for treating diseases of the central nervous system and for promoting cerebral blood circulation” (Dr. Karl Thomae GmbH, priority 1991, dated 1997)

Sequences of proteins named here, by UniProt entry; tags and fusion partners are left off.
UniProt P10980, whole entry: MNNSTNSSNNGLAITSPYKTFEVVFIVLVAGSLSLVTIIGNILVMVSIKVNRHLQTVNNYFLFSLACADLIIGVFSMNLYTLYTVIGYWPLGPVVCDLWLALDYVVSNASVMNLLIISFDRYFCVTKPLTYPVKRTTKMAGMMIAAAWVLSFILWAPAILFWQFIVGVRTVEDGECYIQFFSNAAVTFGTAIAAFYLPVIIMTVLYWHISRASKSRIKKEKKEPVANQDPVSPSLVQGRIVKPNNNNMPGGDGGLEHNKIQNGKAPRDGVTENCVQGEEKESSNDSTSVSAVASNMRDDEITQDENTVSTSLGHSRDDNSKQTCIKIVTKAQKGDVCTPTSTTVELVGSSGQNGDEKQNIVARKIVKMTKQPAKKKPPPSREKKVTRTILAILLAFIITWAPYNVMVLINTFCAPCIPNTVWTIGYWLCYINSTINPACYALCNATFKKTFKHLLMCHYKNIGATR

Columns and labels:
[1] = system: arecoline-induced increase in blood pressure; test: Arecoline test: CNS-penetration, in vivo (rat), reduction in the arecoline-induced increase in blood pressure; conditions: i.v.
Description: Cerebroavailable antimuscarinics block this central effect. […] The trachea is incubated, the animals are respirated with an air/oxygen mixture (80 breaths per minute). The blood pressure is recorded after canulation of the carotid artery by means of a pressure recorder (Bell and Howell Type 4-327-I). The test substances are administered through the jugular vein ([…]). […] The arecoline is administered (in doses of 0.3 mg/kg) at 15 minute intervals. After 2 comparison values, the test substance is injected in increasing doses 5 minutes before the next administration of arecoline. The results obtained were compared with the average starting values and determined as the percentage inhibition.

[2] = biological target: T1, M2 (Heart) muscarinic receptors (Rattus norvegicus, UniProt P10980); test: Receptor binding test, [3H]NMS, heart (M2); set-up: species or system Male Wistar rats; conditions: ratio of Ki M1 (cortex) to Ki M2 (heart)
T1 construct: The cerebral cortex, heart and salivary glands were removed, washed and homogenised; from tissue; host or cells: rat heart homogenate (Wistar, Chbb: THOM)

SMILES	effect on arecoline-mediated central effects / increase in blood pressure (in words) [1]	Selectivity ratio (M1 /M2) [2]
CCN(CC)CC1CCCCN1CC(=O)N1c2cc(Cl)ccc2C(=O)Nc2cccnc21 (racemic) [Substance K, (±)-9-chloro-11-[[2-[(diethylamino)methyl]-1-piperidinyl]-acetyl]-5,11-dihydro-6H-pyrido[2,3-b]-[1,4]benzodiazepin-6-one]	had no effect on the increase in blood pressure caused by arecoline	
CCN(CC)CC1CCCCN1CC(=O)N1c2ccccc2C(=O)Nc2cccnc21 (stereo not shown) [Substance H, 11-[[2-[(diethylamino)methyl]-1-piperidinyl]acetyl]-5,11-dihydro-6H-pyrido[2,3-b][1,4]benzodiazepin-6-one]	had no effect on the increase in blood pressure caused by arecoline	6
O=C1Nc2cccnc2N(C(=O)CCCCCN2CCCCC2)c2ccccc21 [Substance O, 5,11-dihydro-11-[1-oxo-6-(1-piperidinyl)-1-hexyl]-6H-pyrido[2,3-b][1,4]benzodiazepin-10-one]	had no effect on the increase in blood pressure caused by arecoline	
